# Measured values: PubChem BioAssay (Tox21)
# The chains behind the UniProt entries cited, without tags or fusion partners. Where a name states a change or a piece, a line headed by the entry shows the natural chain unless it says otherwise.
# UniProt P22303: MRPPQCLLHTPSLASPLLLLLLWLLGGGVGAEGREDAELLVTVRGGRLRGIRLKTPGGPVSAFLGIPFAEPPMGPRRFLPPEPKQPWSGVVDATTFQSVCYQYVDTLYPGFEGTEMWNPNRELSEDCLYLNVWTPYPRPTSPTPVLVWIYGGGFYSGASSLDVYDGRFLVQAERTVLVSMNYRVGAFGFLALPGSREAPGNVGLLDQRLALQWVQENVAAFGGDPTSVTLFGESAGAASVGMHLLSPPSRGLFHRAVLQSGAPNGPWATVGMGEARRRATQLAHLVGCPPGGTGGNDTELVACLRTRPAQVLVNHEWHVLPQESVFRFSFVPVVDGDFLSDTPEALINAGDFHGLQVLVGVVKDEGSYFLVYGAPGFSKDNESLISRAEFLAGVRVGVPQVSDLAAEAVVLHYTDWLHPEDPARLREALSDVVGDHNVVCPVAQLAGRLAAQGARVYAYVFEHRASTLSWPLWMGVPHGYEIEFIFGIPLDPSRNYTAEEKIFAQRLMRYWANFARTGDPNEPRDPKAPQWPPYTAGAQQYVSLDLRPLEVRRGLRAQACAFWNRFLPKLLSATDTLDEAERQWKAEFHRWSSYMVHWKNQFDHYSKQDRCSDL
# UniProt P10635, whole entry, looked up: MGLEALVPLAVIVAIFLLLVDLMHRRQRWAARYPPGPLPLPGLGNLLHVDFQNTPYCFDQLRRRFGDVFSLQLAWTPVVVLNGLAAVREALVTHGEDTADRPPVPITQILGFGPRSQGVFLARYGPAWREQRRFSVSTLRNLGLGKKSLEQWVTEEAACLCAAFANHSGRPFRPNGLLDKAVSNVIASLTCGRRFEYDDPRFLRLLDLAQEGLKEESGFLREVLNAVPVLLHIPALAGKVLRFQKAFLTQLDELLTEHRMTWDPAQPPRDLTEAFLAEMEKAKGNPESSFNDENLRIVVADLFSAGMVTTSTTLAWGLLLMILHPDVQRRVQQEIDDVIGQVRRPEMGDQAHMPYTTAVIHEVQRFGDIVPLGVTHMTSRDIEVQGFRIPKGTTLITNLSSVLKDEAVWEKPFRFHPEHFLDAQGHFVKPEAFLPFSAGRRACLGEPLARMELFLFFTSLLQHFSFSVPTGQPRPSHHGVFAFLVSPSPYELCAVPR
# UniProt P33261, whole entry, looked up: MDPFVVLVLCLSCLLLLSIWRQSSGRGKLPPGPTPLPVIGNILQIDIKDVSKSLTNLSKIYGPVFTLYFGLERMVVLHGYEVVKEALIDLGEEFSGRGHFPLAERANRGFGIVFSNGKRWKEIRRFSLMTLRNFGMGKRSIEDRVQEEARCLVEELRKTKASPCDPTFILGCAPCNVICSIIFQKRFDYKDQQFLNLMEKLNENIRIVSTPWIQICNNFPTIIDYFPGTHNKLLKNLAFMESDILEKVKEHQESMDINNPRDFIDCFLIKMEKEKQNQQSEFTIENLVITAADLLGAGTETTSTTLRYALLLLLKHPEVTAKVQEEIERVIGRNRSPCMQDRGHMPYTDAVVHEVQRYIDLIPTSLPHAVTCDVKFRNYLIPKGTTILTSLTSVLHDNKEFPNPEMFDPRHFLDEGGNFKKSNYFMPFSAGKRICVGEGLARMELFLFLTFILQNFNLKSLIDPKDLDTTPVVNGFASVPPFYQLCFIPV
# UniProt P11712, whole entry, looked up: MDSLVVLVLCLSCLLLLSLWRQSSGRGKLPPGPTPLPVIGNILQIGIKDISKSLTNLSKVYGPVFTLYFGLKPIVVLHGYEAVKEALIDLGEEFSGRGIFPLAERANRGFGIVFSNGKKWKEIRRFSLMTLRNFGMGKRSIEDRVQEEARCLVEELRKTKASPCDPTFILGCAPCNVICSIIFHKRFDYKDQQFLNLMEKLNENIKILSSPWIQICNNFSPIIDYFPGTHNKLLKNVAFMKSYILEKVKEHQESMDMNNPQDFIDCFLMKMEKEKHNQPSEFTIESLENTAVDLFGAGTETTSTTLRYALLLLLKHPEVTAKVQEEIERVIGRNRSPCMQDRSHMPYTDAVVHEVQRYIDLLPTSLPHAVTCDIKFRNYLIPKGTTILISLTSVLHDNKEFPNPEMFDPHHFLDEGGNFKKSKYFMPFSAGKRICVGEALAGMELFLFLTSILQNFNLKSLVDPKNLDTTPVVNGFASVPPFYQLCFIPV
# UniProt Q12809: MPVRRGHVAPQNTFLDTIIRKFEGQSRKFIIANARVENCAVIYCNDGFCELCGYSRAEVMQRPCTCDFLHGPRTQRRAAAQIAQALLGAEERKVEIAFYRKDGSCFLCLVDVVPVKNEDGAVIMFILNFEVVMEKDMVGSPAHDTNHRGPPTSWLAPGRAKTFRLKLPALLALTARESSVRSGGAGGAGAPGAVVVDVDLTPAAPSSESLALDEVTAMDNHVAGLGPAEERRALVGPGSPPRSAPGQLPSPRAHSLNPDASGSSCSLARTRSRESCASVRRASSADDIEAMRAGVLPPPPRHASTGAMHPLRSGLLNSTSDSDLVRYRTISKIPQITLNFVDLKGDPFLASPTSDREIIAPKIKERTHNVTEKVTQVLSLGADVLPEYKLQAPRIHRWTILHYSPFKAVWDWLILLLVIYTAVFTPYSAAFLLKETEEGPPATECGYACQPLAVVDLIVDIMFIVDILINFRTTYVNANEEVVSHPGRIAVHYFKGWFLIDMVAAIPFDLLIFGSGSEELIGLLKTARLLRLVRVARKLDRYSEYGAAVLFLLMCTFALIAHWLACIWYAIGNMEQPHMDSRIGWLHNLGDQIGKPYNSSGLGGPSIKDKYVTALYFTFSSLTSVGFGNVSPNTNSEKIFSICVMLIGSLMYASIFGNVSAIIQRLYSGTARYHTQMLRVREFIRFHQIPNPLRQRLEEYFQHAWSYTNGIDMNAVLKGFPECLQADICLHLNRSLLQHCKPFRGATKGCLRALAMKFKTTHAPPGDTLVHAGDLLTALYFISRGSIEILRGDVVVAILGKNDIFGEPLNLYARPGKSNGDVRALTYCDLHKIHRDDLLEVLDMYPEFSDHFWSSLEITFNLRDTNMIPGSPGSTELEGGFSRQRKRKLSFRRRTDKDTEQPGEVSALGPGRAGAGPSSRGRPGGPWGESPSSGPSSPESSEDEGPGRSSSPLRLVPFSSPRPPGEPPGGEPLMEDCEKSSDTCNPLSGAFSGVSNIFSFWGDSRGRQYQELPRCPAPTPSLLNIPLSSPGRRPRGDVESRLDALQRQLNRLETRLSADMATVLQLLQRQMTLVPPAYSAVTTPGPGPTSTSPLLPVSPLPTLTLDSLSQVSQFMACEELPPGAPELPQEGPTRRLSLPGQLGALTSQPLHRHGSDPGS
# UniProt P05177, whole entry, looked up: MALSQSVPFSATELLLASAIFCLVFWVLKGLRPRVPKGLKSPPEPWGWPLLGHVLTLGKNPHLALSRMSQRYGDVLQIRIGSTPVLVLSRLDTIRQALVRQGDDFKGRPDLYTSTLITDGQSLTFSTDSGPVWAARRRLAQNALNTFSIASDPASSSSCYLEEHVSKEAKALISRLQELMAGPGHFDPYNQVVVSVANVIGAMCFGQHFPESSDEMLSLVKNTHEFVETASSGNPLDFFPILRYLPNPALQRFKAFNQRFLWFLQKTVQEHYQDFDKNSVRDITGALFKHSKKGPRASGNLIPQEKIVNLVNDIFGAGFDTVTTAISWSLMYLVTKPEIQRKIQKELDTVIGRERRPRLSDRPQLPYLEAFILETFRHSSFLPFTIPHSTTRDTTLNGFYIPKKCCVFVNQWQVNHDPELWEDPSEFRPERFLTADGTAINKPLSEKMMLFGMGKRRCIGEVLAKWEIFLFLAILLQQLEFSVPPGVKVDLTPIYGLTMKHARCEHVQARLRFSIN
# Where “and” joins values, the source holds several entries; their conditions need not be identical. Equal entries are not always repeated. The entries are a selection whose mix differs from that of the whole data set. Records with an inconclusive call do not appear. Calls of active or inactive are those of the source. Unless noted, calls come from the whole dose curve.
# Tests used:
# [1] = biological target: Acetylcholinesterase (Homo sapiens) (UniProt P22303); assay: Acetylcholinesterase (AChE) small molecule antagonists: enzyme-based qHTS assay (AID 1347397); settings: AChE enzyme activity inhibition; note: potency is the fitted concentration of half-maximal effect; nearly all actives have a fitted effect of over 55% in size
# Procedure, shortened: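 Absorbance-based detection of thiocholine with DTNB served as the read-out. Recombinant human AChE was exposed to compound for 30 min at RT before a 10 min RT incubation with acetylthiocholine.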
# [2] = qHTS assay to identify small molecule agonists of the NFkB signaling pathway (AID 1159509; active = well fitted curve in the direction sought with a large enough effect in the signal ratio in the repeat runs, not every such curve was filed as active; the % refers to the signal ratio; note: % is set by controls: 0 for no effect and ±100 for the full control effect); settings: NFkB-bla ME-180 cells, beta-lactamase FRET ratio, 5 h
# Procedure, shortened: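 After overnight attachment, reporter cells received test compounds, DMSO or positive controls and were incubated 5 hr at 37 C. FRET substrate was then added for 1.5 hr at room temperature before dual-emission fluorescence reading.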
# [3] = biological target: Acetylcholinesterase (Homo sapiens) (UniProt P22303); assay: Acetylcholinesterase (AChE) small molecule antagonists: enzyme-based qHTS assay with human liver microsomes (AID 1347399); settings: qHTS inhibition; note: potency is the fitted concentration of half-maximal effect; nearly all actives have a fitted effect of over 60% in size
# Procedure, shortened: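 Recombinant human AChE (50 mU/mL in the enzyme mix) and human liver microsomes (0.25 mg/mL final) were preincubated with compound and NADPH (0.25 mg/mL final) for 30 min at 37 C. Acetylthiocholine/DTNB was then added; thiocholine was read colorimetrically after 10 min at room temperature.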
# [4] = biological target: Cytochrome P450 2D6 (Homo sapiens) (UniProt P10635); assay: Cytochrome P450 Family 2 Subfamily D Member 6 (CYP2D6) small molecule antagonists: luciferase reporter qHTS assay (AID 1671196; active = well fitted curve in the direction sought with a large enough effect in the repeat runs; an effect the other way counts as inactive or inconclusive; note: potency is the fitted concentration of half-maximal effect; nearly all actives have a fitted effect of over 50% in size); settings: P450-Glo CYP2D6 enzyme assay, luciferin luminescence, 1 h
# Procedure, shortened: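 CYP2D6 enzyme–substrate mix was held with compound for 10 min at room temperature, then NADPH regeneration solution was added and the reaction ran 1 h at room temperature. Luciferin product was detected by luminescence after 20 min with detection reagent.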
# [5] = biological target: Cytochrome P450 2C19 (Homo sapiens) (UniProt P33261); assay: Cytochrome P450 Family 2 Subfamily C Member 19 (CYP2C19) small molecule antagonists: luciferase reporter qHTS assay (AID 1671197; active = well fitted curve in the direction sought with a large enough effect in the repeat runs; an effect the other way counts as inactive or inconclusive; note: potency is the fitted concentration of half-maximal effect; nearly all actives have a fitted effect of over 65% in size); settings: P450-Glo CYP2C19 enzyme, luciferin luminescence, 1 h
# Procedure, shortened: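 Luminescent readout of CYP2C19 activity: luciferin product detected 20 min after adding detection reagent. Before that, compound and enzyme-substrate mix preincubated 10 min at room temperature; NADPH-regenerating system started a 1 h, 37C reaction. Ketoconazole as positive control.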
# [6] = biological target: Cytochrome P450 2C9 (Homo sapiens) (UniProt P11712); assay: Cytochrome P450 Family 2 Subfamily C Member 9 (CYP2C9) small molecule antagonists: luciferase reporter qHTS assay (AID 1671198; active = well fitted curve in the direction sought with a large enough effect in the repeat runs; an effect the other way counts as inactive or inconclusive; note: potency is the fitted concentration of half-maximal effect; nearly all actives have a fitted effect of over 50% in size); settings: P450-Glo CYP2C9 enzyme assay, luciferin luminescence
# Procedure, shortened: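 Enzyme-substrate mix preincubated with compound 10 min at room temperature; reaction started with NADPH regeneration solution, 1 h 37C. Luminescent luciferin product read after 20 min detection reagent.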
# [7] = biological target: Voltage-gated inwardly rectifying potassium channel KCNH2 (Homo sapiens) (UniProt Q12809); assay: Human Ether-a-go-go-Related Gene (hERG) channel small molecule antagonists: fluorescence cell-based qHTS assay (AID 1671200; active = well fitted curve in the direction sought with a large enough effect in the repeat runs; an effect the other way counts as inactive or inconclusive; note: potency is the fitted concentration of half-maximal effect; nearly all actives have a fitted effect of over 50% in size); settings: hERG-U2OS cells, FluxOR thallium flux fluorescence
# Procedure, shortened: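 hERG-U2OS cells plated overnight at 37 C, loaded with FluxOR II dye 1 h at RT in dark; after 10 min, thallium stimulus added. Fluorescence (480/540 nm) read kinetically for 2 min at 1 s intervals.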
# [8] = biological target: Cytochrome P450 1A2 (Homo sapiens) (UniProt P05177); assay: Cytochrome P450 Family 1 Subfamily A Member 2 (CYP1A2) small molecule antagonists: luciferase reporter qHTS assay (AID 1671199; active = well fitted curve in the direction sought with a large enough effect in the repeat runs; an effect the other way counts as inactive or inconclusive; note: potency is the fitted concentration of half-maximal effect; nearly all actives have a fitted effect of over 50% in size); settings: P450-Glo CYP1A2 enzyme, luciferin luminescence, 1 h
# Procedure, shortened: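 Human CYP1A2 activity measured with a P450-Glo proluciferin substrate; compounds in DMSO preincubated 10 min at room temperature with enzyme-substrate mix, then NADPH regeneration system added for 1 h. Luciferin detection reagent, 20 min, luminescence read.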
smiles,measurement,setting,value
CCN(CC)CCCC(C)Nc1c2ccc(Cl)cc2nc2ccc(OC)cc12 (stereo not drawn),Potency,[1],active: 27.5 µM
CC[N+](CC)(CC)CC,activation,[2]; at 61 µM (top of the series),inactive: -0.0367%
same,activation,[2]; at 78.8 µM (top of the series),inactive: 0.134%
CNC(=O)O/N=C/C(C)(C)SC,Potency,[1],active: 18 µM and active: 11.2 µM
same,Potency,[3],active: 40.3 µM and active: 31.7 µM
Nc1c2ccccc2nc2ccccc12,Potency,[1],active: 1.11 µM and active: 776 nM
same,Potency,[3],active: 7.01 µM and active: 15.5 µM
O=c1[nH]c2ccccc2n1C1CCN(CCCC(c2ccc(F)cc2)c2ccc(F)cc2)CC1,Potency,[4],active: 2.52 µM and active: 3.89 µM
same,Potency,[5],active: 22.4 µM
same,Potency,[6],active: 20 µM and active: 15.5 µM
Oc1c(Cl)cc(Cl)c(Cl)c1Cc1c(O)c(Cl)cc(Cl)c1Cl,Potency,[1],active: 11.2 µM and active: 10 µM and active: 9.77 µM
c1ccc(C[n+]2cccc3ccccc32)cc1,Potency,[1],active: 28.3 µM
COc1ccc2cc3[n+](cc2c1OC)CCc1cc2c(cc1-3)OCO2,Potency,[1],active: 2.85 µM and active: 3.47 µM
same,Potency,[3],active: 16 µM and active: 24.5 µM
COc1cc(C(=O)NCc2ccc(OCCN(C)C)cc2)cc(OC)c1OC,Potency,[1],active: 15.5 µM
CCCCCCCCCCC[C@@H](C[C@@H]1OC(=O)[C@H]1CCCCCC)OC(=O)[C@H](CC(C)C)NC=O,Potency,[1],active: 3.47 µM
Fc1ccc(C(OCCN2CCN(CCCc3ccccc3)CC2)c2ccc(F)cc2)cc1,Potency,[7],active: 0.0601 µM
CO[C@]12C[C@@H](COC(=O)c3cncc(Br)c3)CN(C)[C@@H]1Cc1cn(C)c3cccc2c13,Potency,[1],active: 6.17 µM
same,Potency,[3],active: 27.5 µM
O=[N+]([O-])c1cccc2cccc([N+](=O)[O-])c12,Potency,[5],active: 40.1 µM
same,Potency,[8],active: 3.18 µM
O=[N+]([O-])c1cc([N+](=O)[O-])c2ccccc2c1,Potency,[5],active: 20 µM
same,Potency,[8],active: 0.0878 µM
CCOP(=O)(OCC)O/C(=C/Cl)c1ccc(Cl)cc1Cl,Potency,[1],active: 2 µM
same,Potency,[3],active: 7.1 µM
CN(C)c1ccc2nc3ccc(=[N+](C)C)cc-3sc2c1,Potency,[1],active: 2.16 µM and active: 2 µM and active: 2.45 µM
same,Potency,[3],active: 10.8 µM and active: 6.33 µM and active: 12.3 µM
CNC(=O)O/N=C/C(C)(C)S(C)(=O)=O,Potency,[1],active: 35.7 µM and active: 22.4 µM
